Source: PMC7036995 (Molecules, 2020)

By UniProt entry, the sequences of proteins in these tests, tags left out. Residues count along the entry.
UniProt P02768, 25-609: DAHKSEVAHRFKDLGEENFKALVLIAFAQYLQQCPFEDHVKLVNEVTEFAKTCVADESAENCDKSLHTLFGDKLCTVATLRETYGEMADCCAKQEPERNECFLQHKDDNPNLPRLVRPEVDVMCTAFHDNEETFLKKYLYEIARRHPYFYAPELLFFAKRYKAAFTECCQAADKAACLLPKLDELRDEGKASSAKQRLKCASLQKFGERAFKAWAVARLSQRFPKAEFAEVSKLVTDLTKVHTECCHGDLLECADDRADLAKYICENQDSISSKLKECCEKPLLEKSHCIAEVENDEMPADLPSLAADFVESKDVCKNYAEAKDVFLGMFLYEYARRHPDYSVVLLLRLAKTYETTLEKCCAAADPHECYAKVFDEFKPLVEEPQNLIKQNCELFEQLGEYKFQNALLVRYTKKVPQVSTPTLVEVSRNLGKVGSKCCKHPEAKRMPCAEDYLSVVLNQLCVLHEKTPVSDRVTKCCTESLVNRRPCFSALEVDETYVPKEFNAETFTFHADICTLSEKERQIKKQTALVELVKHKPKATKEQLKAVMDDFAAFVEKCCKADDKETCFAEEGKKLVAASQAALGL
UniProt P02769, 25-607: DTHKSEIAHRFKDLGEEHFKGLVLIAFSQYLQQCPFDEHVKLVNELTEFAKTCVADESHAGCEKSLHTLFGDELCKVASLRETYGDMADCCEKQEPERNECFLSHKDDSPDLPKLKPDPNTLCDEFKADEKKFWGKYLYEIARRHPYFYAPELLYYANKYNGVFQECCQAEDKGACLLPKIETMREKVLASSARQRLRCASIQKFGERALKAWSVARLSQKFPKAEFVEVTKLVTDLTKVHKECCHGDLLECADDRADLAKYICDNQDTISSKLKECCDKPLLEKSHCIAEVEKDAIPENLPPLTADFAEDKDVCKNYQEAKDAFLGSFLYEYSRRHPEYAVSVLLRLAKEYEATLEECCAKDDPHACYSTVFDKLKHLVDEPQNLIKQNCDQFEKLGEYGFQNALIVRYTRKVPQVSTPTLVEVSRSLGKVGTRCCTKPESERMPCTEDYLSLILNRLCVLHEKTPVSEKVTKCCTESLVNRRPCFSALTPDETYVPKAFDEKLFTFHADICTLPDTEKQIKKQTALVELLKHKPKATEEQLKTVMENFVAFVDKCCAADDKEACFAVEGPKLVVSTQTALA

Legend:
[1] = target: human serum albumin (HSA) (Homo sapiens, UniProt P02768); settings: pH 7.4
[2] = target: bovine serum albumin (BSA) (Bos taurus, UniProt P02769); settings: λEX = 295 nm, T = 310.15 K, pH 7.4, BSA 5 μM
[3] = ratio protein:ligand 1:1, HSA 1 μM, T = 310.15 K

| SMILES | α-Helix Content ([1]; ratio protein:ligand 1:0.5, HSA 1 μM, T = 310.15 K) | α-Helix Content [1, 3] | α-Helix Content ([1]; ratio protein:ligand 1:2, HSA 1 μM, T = 310.15 K) | α-Helix Content ([1]; ratio protein:ligand 1:3, HSA 1 μM, T = 310.15 K) | α-Helix Content [1] | α-Helix Content ([1]; ratio protein:ligand 1:4, HSA 1 μM, T = 310.15 K) | change of BSA fluorescence with increasing ligand concentration [2] |
| --- | --- | --- | --- | --- | --- | --- | --- |
| O=c1c(O)c(-c2ccc(O)c(O)c2)oc2cc(O)cc(O)c12 [quercetin] | 63.0 ± 2.0% | 65.4 ± 0.5% | 65.2 ± 0.9% | 66.2 ± 0.7% |  |  |  |
| CCOC(=O)[C@H](CCc1ccccc1)N[C@@H](C)C(=O)N1[C@H](C(=O)O)C[C@@H]2CCC[C@@H]21 [ramipril] |  | 65.0 ± 1.7% |  |  | 63.0 ± 2.6% and 65.1 ± 0.5% and 68.2 ± 1.1% | 70.2 ± 1.3% | decrease |

Values joined by “and” are separate entries in the source; they are usually repeats but may differ in a detail not shown here. Equal values may be shown once. Read-outs that look alike come from different tables or passages of the source.
